The subject of this series is Caco-2 cell monolayers. Put plainly: Caco-2 cell permeability assay of peramivir with permeability enhancers. Conditions: enhancer concentration 1% in HBSS; peramivir 15 μg/mL.

For “d-alpha-tocopheryl polyethylene glycol 1000 succinate [TPGS]”, the “Fold-Enhancement Over Control” value amounted to 28.9 fold and the ng peramivir transported/min was determined as 9.52 ng/min.

The values above are taken from patent US9579383B2, “Formulations for enhanced bioavailability of orally administered polar agents” (ALA WAI PHARMA, INC., priority 2007, dated 2017).
